Experimental data from patent US20260248831A1, “NON-TUBERCULOSIS MYCOBACTERIA INFECTION TREATMENT” (AN2 Therapeutics, Inc., priority 2021, published 2026).

Columns and labels:
Experiment in all cases: Checkerboard antibacterial synergy testing of EBO pairwise combinations
Assay type in all cases: cell-based
Settings in all cases: in combination with EBO, Middlebrook 7H9+5% OADC
[1] = tested on: M. intracellulare DNA000111
Protocol: (§1) Frozen stocks of the drugs were prepared at 5 or 2 mg/ml and frozen in aliquots at −20° C. On the day of the experiment the stocks were thawed and diluted to the appropriate concentration. Middlebrook 7H9 broth and agar, CA-MH agar and Middlebrook OADC were all purchased from Becton-Dickinson and Company (Sparks, MD).
(§2) M. avium 2285R (Verma et al. Microbiol (2019) 10: 693) and M intracellulare DNA000111 were obtained from Diane Ordway (Colorado State University, Fort Collins, CO). M. chimaera 20-S-05 and the macrolide/bedaquiline-resistant M. intracellulare 20-S-13 isolate were obtained from Barbara Brown-Elliott (Mycobacteria/Nocardia Research Laboratory, University of Texas Health Science Center, Tyler Tx). The strains M abscessus ATCC 19977, M. avium ATCC 700898 and M. peregrinum ATCC 700686 were obtained from the American Type Culture Collection (ATCC, Manassas, VA). Stocks of isolates were prepared and frozen at −80° C. Fresh cultures of each isolate (1-2 weeks) were grown on either 7H10 agar plus 5% OADC or CAMH agar plus 5% OADC for use in each experiment.
(§3) The checkerboard methodology was used to test for synergy and antagonism using Middlebrook 7H9+5% OADC (Dubos et al. Am Rev Tuberc (1947) 56:334-45) as the microbiology growth media. The first antibiotic of the combination, EBO, was serially diluted along the x-axis, whereas the second antibiotic was diluted along the y-axis. Synergistic or antagonistic activity was determined using the sum of the fractional inhibitory concentration (ΣFIC) index. The FTC index is calculated as the sum of FTC A+FTC B, where FTC A is the MIC of drug A in the combination of drugs A and B divided by the MIC of drug A alone, plus the MIC of drug B in the combination of drugs A and B divided by the MIC of drug B alone. A combination of drugs is considered synergistic when the FIC is ≤0.5, additive when the FTC is >0.5 to 1, indifferent when the FIC is >1 to 2, and antagonistic when the FTC is >2 (EUCAST. Clin. Microbiol. Infect. (2000) 6: 503-508).

M. chimaera 20-S-05 = tested on: M. chimaera 20-S-05
Protocol: as §1, §2, §3

M. avium ATCC 700898 = tested on: M. avium ATCC 700898
Protocol: as §1, §2, §3

M. abscessus ATCC 19977 = tested on: M. abscessus ATCC 19977
Protocol: as §1, §2, §3

[2] = tested on: M. peregrinum ATCC 700686
Protocol: as §1, §2, §3

Compound	Summary Activity of EBO Drug Combinations (ΣFIC index class) [1]	Summary Activity of EBO Drug Combinations (ΣFIC index class) (M. chimaera 20-S-05)	Summary Activity of EBO Drug Combinations (ΣFIC index class) (M. avium ATCC 700898)	Summary Activity of EBO Drug Combinations (ΣFIC index class) (M. abscessus ATCC 19977)	Summary Activity of EBO Drug Combinations (ΣFIC index class) [2]
NCC[C@H](O)C(=O)N[C@@H]1C[C@H](N)[C@@H](O[C@H]2O[C@H](CN)[C@@H](O)[C@H](O)[C@H]2O)[C@H](O)[C@H]1O[C@H]1O[C@H](CO)[C@@H](O)[C@H](N)[C@H]1O [AMK, Amikacin]	I (I = Indifferent)	I (I = Indifferent)	I (I = Indifferent)	I (I = Indifferent)	A (A = Additive)
CC[C@H]1OC(=O)[C@H](C)[C@@H](O[C@H]2C[C@@](C)(OC)[C@@H](O)[C@H](C)O2)[C@H](C)[C@@H](O[C@@H]2O[C@H](C)C[C@H](N(C)C)[C@H]2O)[C@](C)(OC)C[C@@H](C)C(=O)[C@H](C)[C@@H](O)[C@]1(C)O [CLR, Clarithromycin]	I (I = Indifferent)	I (I = Indifferent)	I (I = Indifferent)	I (I = Indifferent)	I (I = Indifferent)
